Experimental data reported in PMC8765781, “A platform of assays for the discovery of anti-Zika small-molecules with activity in a 3D-bioprinted outer-blood-retina model” (PLoS ONE, 2022).

Columns and labels:
in vitro [1] = settings: African green monkey
in vitro [2] = settings: human
in vitro [3] = settings: human; remark: listed apart in the source

Compound	CC50 (in vitro [1]) [µM]	CC50 (in vitro [2]) [µM]	CC50 (in vitro [3]) [µM]
CC1=C[C@H]2O[C@@H]3[C@H](O)C[C@](C)([C@@]2(CO)[C@H](O)C1=O)[C@]31CO1 [NCGC00180572-02, vomitoxin]	> 50	> 30	> 30
CC(=O)O[C@@H]1[C@@H](O)[C@H]2O[C@@H]3C=C(C)[C@@H](O)C[C@]3(CO)[C@]1(C)[C@]21CO1 [NCGC00380400-01, NT-2 toxin]	> 50	> 30	
